Measured values published in US6828139B2, “Production of replicative hepatitis C virus” (priority 2000, dated 2004).

Assays:
HCV (−) RNA synthesis = assay: HCV (−) strand RNA synthesis in the inducible HCV replication system, RNase protection assay; type: cell-based, hepatitis C virus (genotype 1a, strain H77) in CV-1 cells; settings: IFN-α 2000 to 15,000 units/well; added at conclusion of transfection, 20 hours prior to vTF7-3

For interferon-α-2b [IFN-α], the “inhibition of HCV (−) RNA synthesis” value (HCV (−) RNA synthesis) was “dose-dependent inhibition” and the “inhibition of HCV core protein synthesis” value (HCV core protein) was “dose-responsive inhibition”.
